# Reference: PubChem BioAssay AID504634 (The Scripps Research Institute Molecular Screening Center, 2011)
# Protein sequences, listed by entry. Tags and fused reporters are not part of them.
# UniProt P47898, whole entry, looked up: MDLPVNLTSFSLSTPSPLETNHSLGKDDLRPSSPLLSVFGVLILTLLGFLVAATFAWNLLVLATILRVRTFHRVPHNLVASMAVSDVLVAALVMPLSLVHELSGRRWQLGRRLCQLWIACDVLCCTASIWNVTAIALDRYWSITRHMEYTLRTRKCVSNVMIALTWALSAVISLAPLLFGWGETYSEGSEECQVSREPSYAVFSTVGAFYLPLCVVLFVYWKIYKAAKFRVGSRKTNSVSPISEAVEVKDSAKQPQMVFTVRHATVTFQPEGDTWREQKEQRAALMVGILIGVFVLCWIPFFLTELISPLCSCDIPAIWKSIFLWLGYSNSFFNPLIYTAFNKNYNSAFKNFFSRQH
# The entries are a selection whose mix differs from that of the whole data set. Calls of active or inactive are those of the source. Rule as the data show it: active = inhibition mostly above about 23% (no sharp cut-off); inactive = mostly below about 18%.
# Target: 5-hydroxytryptamine receptor 5A (Homo sapiens) (UniProt P47898)
# Assay: inverse agonism at human 5-HT5A receptor – cell-based, luminescence, full-deck HTS, counter-screen for OPRM1-OPRD1 heterodimer inverse agonist project, primary screen (AID 504634);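 also: 0% = cells with DMSO and 100% = no-cell wells with DMSO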
# Conditions: HTR5A cell line, at 9.3 µM, hits give high values
row,SMILES,inhibition
1,COC(=O)C1=C(C)N=C2SCCC(=O)N2C1/C=C/c1ccccc1 (stereo not given),inactive: 3.14%
2,COC(=O)c1ccc(CNC(=O)Cn2cnc3c(OCc4ccccc4)ncnc32)cc1,inactive: -19.1%
3,CC1CCN(C(=O)Cn2c(SCC(=O)Nc3nccs3)nc3ccccc32)CC1,inactive: 5.46%
4,O=C(Cn1cnc2c(NCc3ccccc3)ncnc21)NCc1nc2ccccc2[nH]1,inactive: 5.79%
5,CCOC(=O)c1ccccc1NC(=O)Cn1c(-c2nonc2N)nc2ccccc21,inactive: -18.9%
6,CC(C)NC(=O)CC1C(=O)N(Cc2ccccc2)C(C)c2nc3ccccc3n21 (stereo not given),inactive: -11.1%
7,C(=N\c1nc2ccccc2n1CCN1CCCCC1)/c1ccc2c(c1)OCO2,inactive: 4.9%
8,O=C(Cn1c(Cc2ccccc2)nc2ccccc21)NCc1ccc2c(c1)OCO2,inactive: 5.3%
9,O=P(Nc1nc2ccc(Cl)cc2s1)(c1ccccc1)c1ccccc1,inactive: -1.9%
10,Cc1ccc(-c2csc(NCCn3c(-c4ccncc4)nc4ccccc43)n2)cc1,inactive: -7.94%
11,Cc1ccc(CNC(=O)Cn2cnc3c(NCc4ccccc4)ncnc32)o1,inactive: 10.3%
12,Cc1ccc(C)c(S(=O)(=O)N2CCN(C(=O)Cn3c(C(F)(F)F)nc4ccccc43)CC2)c1,inactive: 1.09%
13,CC(C)[C@H](NC(=O)N1CCn2c1nc1ccccc12)C(=O)NCc1ccccc1Cl,inactive: -19.4%
14,COc1ccc(CN(C)C(=O)Cn2cnc3c(OCc4ccccc4)ncnc32)cc1OC,inactive: 2.14%
15,O=C(Cn1cnc2ccccc21)NCc1ccccc1,inactive: -17.7%
16,Cn1c(=O)n(CCN2CCOCC2)c(=O)c2c1nc1n2CCN1c1ccc(Oc2ccccc2)cc1,inactive: 6.63%
17,COc1ccc(N2CCN(C(=O)Cn3cnc4c3c(=O)n(C)c(=O)n4C)CC2)cc1,inactive: 5.99%
18,CCCC1OP(N)(=O)OCC1CC (stereo not given),inactive: 9.19%
19,Cn1c(=O)c2c(ncn2CC(=O)NC[C@H]2O[C@@H](n3cnc4c(N)ncnc43)[C@H](O)[C@@H]2O)n(C)c1=O,inactive: -2.33%
20,O=C(O)c1ccccc1[As](=O)(O)O,inactive: -5.93%
21,O=C(Cn1c(COc2ccccc2)nc2ccccc21)Nc1cc(Cl)cc(Cl)c1,inactive: 18.3%
22,CC(=O)Nc1ccc([As](=O)(O)O)cc1,inactive: -8%
23,Cn1c(=O)c2ncn(CC(=O)Nc3ccc4c5c(cccc35)CC4)c2n(C)c1=O,inactive: -16.4%

row,SMILES,inhibition
1,CCOc1cccc(N2C(=O)CC(n3cnc4ccccc43)C2=O)c1 (stereo not given),inactive: 0.06%
2,Cc1ccc2c(c1)C1CN(C)CCC1N2C(=O)c1ccccc1NS(=O)(=O)c1ccc(F)cc1 (stereo not given),inactive: 0.27%
3,O=C(Cn1c(NCCO)nc2ccccc21)NCC(F)(F)F,inactive: -1.44%
4,CN1C(=O)Cn2c1nc1ccccc12,inactive: -22.9%
5,CC(C)C[C@H](NC(=O)N1CCn2c1nc1ccccc12)C(=O)N1CCCCC1,inactive: -32.9%
6,CC(C)CSc1nc2ccccc2n1CC(N)=O,inactive: -9.55%
7,C[C@H](O)[C@@H]1C(=O)N2CCc3ccc(N4CCOCC4)cc3[C@@H]2C[C@@H]1N(C)C(=O)Nc1ccccc1,inactive: 2.15%
8,Nc1ncnc2c1ncn2C1OC(CO)C(O)C1N (stereo not given),inactive: 14.5%
9,O=C(Cn1c(SCC(=O)N2CCc3ccccc3C2)nc2ccccc21)NC1CCCC1,inactive: -11.6%
10,Cn1c(=O)n(CC(=O)NCc2cccnc2)c2ccccc21,inactive: 4.6%
11,CC1CCCCN1C(=O)CSc1nc2ccccc2n1CC(=O)N1CCc2ccccc21 (stereo not given),inactive: 10.9%
12,O=C(CCCCCNC(=O)N1CCn2c1nc1ccccc12)N[C@@H](Cc1ccccc1)C(=O)O,inactive: 11.4%
13,Cn1c(=O)c2c(nc(NCc3ccccc3)n2CC(=O)NCc2ccccc2)n(C)c1=O,inactive: -34.5%
14,O=C(Cn1cnc2ccccc21)Nc1cccc([N+](=O)[O-])c1,inactive: -13.7%
15,Nc1cccc2ccc([As](=O)(O)O)cc12,inactive: -1.75%
16,CCN(CC)CCn1c(=N)n(CCOc2ccccc2)c2ccccc21,inactive: -13%
17,CCC(=O)N(c1ccccc1)C1CCCCC1,inactive: 12.1%
18,CCN(N=Nc1nonc1N)c1nonc1N,inactive: 9.84%
19,CC(C)(C)NC(=O)Cn1c(SCC(=O)NC2CCCC2)nc2ccccc21,inactive: -18.3%
20,CCN(CC)CCNC(=O)Cn1c(-c2ccccn2)nc2ccccc21,inactive: 6.09%
21,Nc1nonc1-c1nc2ccccc2n1CC(=O)Nc1ccccc1,inactive: -2.68%
22,CCC(=O)Nc1nnc(/C=C/c2ccc(OC)cc2)s1,inactive: -0.75%
